# T1: human IL-1RI expressed on the cell surface (K299 cells; HeLa cells) (human, UniProt P14778 18-569)
# T1 sequence (looked up): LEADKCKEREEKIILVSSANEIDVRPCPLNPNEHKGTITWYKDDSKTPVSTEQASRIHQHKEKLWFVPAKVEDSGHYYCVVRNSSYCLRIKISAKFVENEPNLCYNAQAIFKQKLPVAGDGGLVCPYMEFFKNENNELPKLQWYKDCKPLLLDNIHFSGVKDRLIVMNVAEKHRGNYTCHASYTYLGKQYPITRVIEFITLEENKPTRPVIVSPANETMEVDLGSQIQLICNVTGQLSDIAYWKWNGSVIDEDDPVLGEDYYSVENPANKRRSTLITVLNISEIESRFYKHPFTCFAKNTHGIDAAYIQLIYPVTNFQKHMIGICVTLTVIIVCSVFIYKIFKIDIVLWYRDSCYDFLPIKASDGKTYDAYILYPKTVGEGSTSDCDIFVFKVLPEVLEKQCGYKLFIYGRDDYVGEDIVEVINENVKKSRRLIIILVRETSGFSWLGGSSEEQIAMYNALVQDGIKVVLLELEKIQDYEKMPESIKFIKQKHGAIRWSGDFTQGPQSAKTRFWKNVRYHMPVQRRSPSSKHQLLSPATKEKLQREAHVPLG
# T2: biotinylated soluble human IL-1RI ectodomain (human, UniProt P14778 18-336, biotinylated with EZ-Link Sulfo-NHS-SS-Biotin, approaching 2 mol biotin/mol receptor)
# T2 construct: extracellular domain; also called biotinylated IL-1RI; biotinylated human IL-1RI
# T2 sequence (looked up): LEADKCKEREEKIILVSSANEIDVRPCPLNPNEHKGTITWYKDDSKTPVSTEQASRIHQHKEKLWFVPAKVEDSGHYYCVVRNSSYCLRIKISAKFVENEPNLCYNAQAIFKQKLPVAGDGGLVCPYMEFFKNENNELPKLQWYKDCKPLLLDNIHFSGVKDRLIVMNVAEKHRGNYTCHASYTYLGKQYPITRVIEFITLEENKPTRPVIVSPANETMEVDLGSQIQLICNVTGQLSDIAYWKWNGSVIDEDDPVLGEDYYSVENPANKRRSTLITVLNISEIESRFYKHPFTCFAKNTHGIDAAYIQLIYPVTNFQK
# B1: IL-1ra (ligand, human, UniProt P18510 26-177, looked up)
# chain: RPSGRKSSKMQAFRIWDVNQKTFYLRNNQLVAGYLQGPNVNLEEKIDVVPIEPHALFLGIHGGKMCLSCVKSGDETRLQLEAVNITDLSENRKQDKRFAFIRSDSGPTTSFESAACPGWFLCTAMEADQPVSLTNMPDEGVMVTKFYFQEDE
# notes: also called soluble IL-1ra; naturally-occurring IL-1R antagonist
# Key:
# [1] = molecular target: T1, human IL-1RI expressed on the cell …; assay: cell-based or functional assay
# [2] = molecular target: T2, biotinylated soluble human IL-1RI …; assay: competition binding assay, plate-immobilized biotinylated IL-1RI ectodomain, competitor Eu-labeled IL-1α
# [3] = molecular target: T2, biotinylated soluble human IL-1RI …; assay: competition binding assay, plate-immobilized biotinylated IL-1RI ectodomain, competitor Eu-labeled IL-1β
binder,measurement,setting,value
B1,"IC50, inhibition of IL-1α-induced NF-κB nuclear translocation in HeLa cells",[1],0.4 nM
same,"IC50, inhibition of IL-1β-induced NF-κB nuclear translocation in HeLa cells",[1],0.2 nM
same,IC50,[2],3.1 nM
same,IC50,[3],2.5 nM

# — patent US20050282181A1 (published 2005)
